In ChEMBL document CHEMBL5236559 (J Med Chem, 2021):

Tests used:
SMMC-7721 = assay: Cytotoxicity against human SMMC-7721 cells assessed as reduction in cell viability incubated for 48 hrs by MTT assay
HeLa = assay: Cytotoxicity against human HeLa cells assessed as reduction in cell viability incubated for 48 hrs by MTT assay
HepG2 = assay: Cytotoxicity against human HepG2 cells assessed as reduction in cell viability incubated for 48 hrs by MTT assay
HL-60 = assay: Cytotoxicity against human HL-60 cells assessed as reduction in cell viability incubated for 48 hrs by MTT assay

SMILES	IC50 (SMMC-7721) [µM]	IC50 (HeLa) [µM]	IC50 (HepG2) [µM]	IC50 (HL-60) [µM]
NCCCC(=O)Nc1ccccc1[As]1SCCCS1	> 10	> 10	> 10	1.84
NCCCC(=O)Nc1ccc([As]2SCCS2)cc1	> 10	> 10	> 10	2.4
O=[N+]([O-])c1cc([As]2SCCCS2)ccc1O	6.9	> 10	2.58	0.67
NCCCCCC(=O)Nc1ccc([As]2SCCS2)cc1	> 10	> 10	> 10	4.54
NCCCC(=O)Nc1ccccc1[As]1SCCS1	> 10	> 10	7.27	3.84
NCC(=O)Nc1cccc([As]2SCCCS2)c1	7.76	8.57	5.02	0.96
NCCCC(=O)Nc1cccc([As]2SCCCS2)c1	> 10	> 10	> 10	1.79
NCCCC(=O)Nc1ccc([As]2SCCCS2)cc1	> 10	> 10	7.04	1.71
COc1ccc([As]2SCCCS2)cc1NC(=O)CN	4.81	5.13	2.47	0.86
NCCCCCC(=O)Nc1ccccc1[As]1SCCS1	> 10	> 10	> 10	4.9
NCC(=O)Nc1ccccc1[As]1SCCCS1	> 10	> 10	5.36	1.73
NCC(=O)Nc1ccc([As]2SCCCS2)cc1	9.25	9.05	5.79	1.13
NCC(=O)Nc1cc([As]2SCCCS2)ccc1O	9.87	> 10	5.13	0.9
Nc1ccccc1[As]1SCCCS1	2.91	3.14	2.42	0.21
NCC(=O)Nc1cccc([As]2SCCS2)c1	> 10	> 10	> 10	2.49
Nc1cc([As]2SCCS2)ccc1O	> 10	> 10	> 10	4.85
NCCCC(=O)Nc1cccc([As]2SCCS2)c1	> 10	> 10	> 10	3.7
NCC(=O)Nc1ccccc1[As]1SCCS1	> 10	> 10	> 10	4.9
Nc1ccc([As]2SCCS2)cc1	> 10	> 10	5.08	2.26
NCC(=O)Nc1ccc([As]2SCCS2)cc1	> 10	> 10	> 10	1.72
COc1ccc([As]2SCCS2)cc1NC(=O)CN	> 10	> 10	5.13	1.62
Nc1cccc([As]2SCCCS2)c1	5.79	5.67	2.5	0.75
Nc1cc([As]2SCCCS2)ccc1O	6.74	7.77	3.74	1.64
O=[N+]([O-])c1cc([As]2SCCS2)ccc1O	> 10	> 10	> 10	3.7
Nc1cccc([As]2SCCS2)c1	> 10	> 10	> 10	2.93
Nc1ccccc1[As]1SCCS1	6.38	5.48	3.32	6.5
NCC(=O)Nc1cc([As]2SCCS2)ccc1O	> 10	> 10	> 10	3.46
NCCCCCC(=O)Nc1cccc([As]2SCCS2)c1	> 10	> 10	> 10	4.95
Nc1ccc([As]2SCCCS2)cc1		4.86	2.27	0.81
